Measurements published in patent EP4603105A1, “PHARMACEUTICAL COMPOSITION CONTAINING CYCLIC COMPOUND HAVING SELECTIVE KRAS INHIBITORY EFFECT AGAINST HRAS AND NRAS” (CHUGAI SEIYAKU KABUSHIKI KAISHA, priority 2022, dated 2024).
Values belong to the compound of their own block, whether it stands above or below them.

Sequences of proteins named here, by UniProt entry; tags and fusion partners are left off. Residues count along the entry.
UniProt P01112, whole entry: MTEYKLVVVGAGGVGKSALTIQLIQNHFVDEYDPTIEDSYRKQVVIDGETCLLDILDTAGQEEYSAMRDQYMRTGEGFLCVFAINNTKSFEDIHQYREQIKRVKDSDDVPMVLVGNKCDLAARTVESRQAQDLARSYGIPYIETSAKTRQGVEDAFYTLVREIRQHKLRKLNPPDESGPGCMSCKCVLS
UniProt P01116, 1-188 isoform 2: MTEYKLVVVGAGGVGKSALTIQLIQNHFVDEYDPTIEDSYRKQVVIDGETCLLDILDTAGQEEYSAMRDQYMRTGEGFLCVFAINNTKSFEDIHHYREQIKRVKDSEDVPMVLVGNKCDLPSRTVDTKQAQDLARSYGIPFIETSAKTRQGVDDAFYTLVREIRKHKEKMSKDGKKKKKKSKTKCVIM
UniProt P01111, whole entry: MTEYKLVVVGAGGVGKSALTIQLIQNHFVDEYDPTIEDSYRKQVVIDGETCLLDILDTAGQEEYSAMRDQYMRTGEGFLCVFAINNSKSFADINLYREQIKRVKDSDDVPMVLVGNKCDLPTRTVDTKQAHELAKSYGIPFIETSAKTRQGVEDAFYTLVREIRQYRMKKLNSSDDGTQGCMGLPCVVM

Assays:
HRAS wild-type protein = HRAS wild-type protein (Homo sapiens, UniProt P01112); experiment: Binding to HRAS by surface plasmon resonance (SPR), KD and KD ratio to KRAS
[1] = biological target: GDP-bound KRAS wild-type protein (Homo sapiens, UniProt P01116); experiment: Binding to KRAS by surface plasmon resonance (SPR), dissociation constant KD; conditions: read-out: KRAS KD, 1:1 binding model
[2] = biological target: GDP-bound NRAS wild-type protein (Homo sapiens, UniProt P01111); experiment: Binding to NRAS by surface plasmon resonance (SPR), KD and KD ratio to KRAS
[3] = ratio of the KD value with respect to HRAS wild-type protein to the KD value with respect to KRAS
[4] = ratio of the KD value with respect to GDP-bound NRAS wild-type protein to the KD value with respect to KRAS
[5] = ratio of KD with respect to HRAS wild-type protein to KD with respect to KRAS

Kd [1]: 320 pM
SMILES: CCC[C@H]1C(=O)N[C@@H]([C@@H](C)CC)C(=O)N2C[C@@H](OC)C[C@H]2C(=O)N(C)[C@H]2C/C=C\CCN(C2=O)[C@@H](Cc2ccc(C)cc2)C(=O)N(C)CC(=O)N[C@@H](CCc2ccc(C(F)(F)F)c(Cl)c2)C(=O)N2C[C@H](OCC)C[C@H]2C(=O)NC2(CC(C)(C)C2)C(=O)N(C)[C@@H](C2CCCC2)C(=O)N(C)[C@H](C(=O)N(C)C)CC(=O)N1C
HRAS /KRAS (HRAS wild-type protein; ratio of KD for HRAS wild-type protein to KD for KRAS): B (a compound having 3 or more and less than 10 is denoted as B) | NRAS /KRAS ([2]; ratio of KD for GDP-bound NRAS wild-type protein to KD for KRAS): A (a compound having 10 or more and less than 20 is denoted as A)

SMILES: CC[C@H](C)[C@@H]1NC(=O)[C@H](CC(C)C)N(C)C(=O)C[C@@H](C(=O)N(C)C)N(C)C(=O)[C@H](C2CCCC2)N(C)C(=O)C2(CCCC2)NC(=O)[C@@H]2CCCN2C(=O)[C@H](CCc2ccc(C(F)(F)F)c(Cl)c2)NC(=O)CN(C)C(=O)[C@H](Cc2ccc(C(F)(F)F)cc2)N2CC=CCOC[C@@H](C2=O)N(C)C(=O)CN(C)C1=O
HRAS /KRAS (HRAS wild-type protein; [3]): C (A compound having a KD ratio of 0.1 or more and less than 3 is denoted as C) | NRAS /KRAS [2, 4]: C (A compound having a KD ratio of 0.1 or more and less than 3 is denoted as C)

SMILES: CC[C@H](C)[C@@H]1NC(=O)[C@H](CC(C)C)N(C)C(=O)C[C@@H](C(=O)N(C)C)N(C)C(=O)[C@H](C2CCCC2)N(C)C(=O)C2(CCCC2)NC(=O)[C@@H]2CCCN2C(=O)[C@H](CCc2ccc(C(F)(F)F)c(Cl)c2)NC(=O)CN(C)C(=O)[C@H](Cc2ccc(C(F)(F)F)cc2)N2CCC=CCCN(CC2=O)C(=O)CN(C)C1=O
HRAS /KRAS (HRAS wild-type protein; [3]): C (A compound having a KD ratio of 0.1 or more and less than 3 is denoted as C) | NRAS /KRAS [2, 4]: C (A compound having a KD ratio of 0.1 or more and less than 3 is denoted as C)

SMILES: CC[C@H](C)[C@@H]1NC(=O)[C@H](CC)N(C)C(=O)C[C@@H](C(=O)N(C)C)N(C)C(=O)[C@H](C2CCCC2)N(C)C(=O)C2(CCC2)NC(=O)[C@@H]2COCCN2C(=O)[C@H](CCc2cc(F)c(C(F)(F)F)c(F)c2)NC(=O)CN(C)C(=O)[C@H](Cc2ccc(C(F)(F)F)cc2)N2CC/C=C\C[C@@H](C2=O)N(C)C(=O)CN(C)C1=O
HRAS /KRAS (HRAS wild-type protein; [5]): A (a compound having 10 or more and less than 20 is denoted as A)

SMILES: CCC[C@H]1C(=O)N[C@@H]([C@@H](C)CC)C(=O)N(C)CC(=O)N(C)[C@H]2C/C=C\CCN(C2=O)[C@@H](Cc2ccc(C(F)(F)F)cc2)C(=O)N(C)CC(=O)N[C@@H](CCc2ccc(C(F)(F)F)c(OC)c2)C(=O)N2C[C@H](OCC)C[C@H]2C(=O)NC2(CCC2)C(=O)N(C)[C@@H](C2CCCC2)C(=O)N(C)[C@H](C(=O)N(C)C)CC(=O)N1C
HRAS /KRAS (HRAS wild-type protein; [5]): B (a compound having 3 or more and less than 10 is denoted as B)

SMILES: CCCOC[C@H]1C(=O)N[C@@H]([C@@H](C)CC)C(=O)N(C)CC(=O)N(C)[C@H]2C/C=C\CCN(C2=O)[C@@H](Cc2ccc(C(F)(F)F)cc2)C(=O)N(C)CC(=O)N[C@@H](CCc2cc(F)c(C(F)(F)F)c(F)c2)C(=O)N2C[C@H](OCC)C[C@H]2C(=O)NC2(CCC2)C(=O)N(C)[C@@H](C2CCCC2)C(=O)N(C)[C@H](C(=O)N(C)C)CC(=O)N1C
HRAS /KRAS (HRAS wild-type protein; [5]): B (a compound having 3 or more and less than 10 is denoted as B)

SMILES: CCOC1CC2C(=O)NC3(CCC3)C(=O)N(C)C(C3CCCC3)C(=O)N(C)C(C(=O)N3CCOCC3)CC(=O)N(C)C(Cc3ccc(Cl)c(Cl)c3)C(=O)NC(C(C)CC)C(=O)N(C)CC(=O)N(C)C3CCCCCN(C3=O)C(Cc3ccc(C(F)(F)F)cc3)C(=O)N(C)CC(=O)NC(CCc3cc(F)c(C(F)(F)F)c(F)c3)C(=O)N2C1 (centres unmarked)
HRAS /KRAS (HRAS wild-type protein; [5]): A (a compound having 10 or more and less than 20 is denoted as A)

SMILES: CCOC1CC2C(=O)NC3(CCC3)C(=O)N(C)C(C3CCCC3)C(=O)N(C)C(C(=O)N3CCOCC3)CC(=O)N(C)C(Cc3ccc(C#N)cc3)C(=O)NC(C(C)CC)C(=O)N(C)CC(=O)N(C)C3CCCCCN(C3=O)C(Cc3ccc(C(F)(F)F)cc3)C(=O)N(C)CC(=O)NC(CCc3cc(F)c(C(F)(F)F)c(F)c3)C(=O)N2C1 (centres unmarked)
HRAS /KRAS (HRAS wild-type protein; [5]): B (a compound having 3 or more and less than 10 is denoted as B)

SMILES: CCO[C@@H]1C[C@H]2C(=O)NC3(CCC3)C(=O)N(C)[C@@H](C3CCCC3)C(=O)N(C)[C@H](C(=O)N(C)C)CC(=O)N(C)[C@@H](CC3CC3)C(=O)N[C@@H]([C@@H](C)CC)C(=O)N(C)CC(=O)N(C)[C@H]3CCCCCN(C3=O)[C@@H](Cc3ccc(F)cc3)C(=O)N(C)CC(=O)N[C@@H](CCc3cc(F)c(C(F)(F)F)c(F)c3)C(=O)N2C1
HRAS /KRAS (HRAS wild-type protein; [5]): A (a compound having 10 or more and less than 20 is denoted as A)

SMILES: CCO[C@@H]1C[C@H]2C(=O)NC3(CCC3)C(=O)N(C)[C@@H](C3CCCC3)C(=O)N(C)[C@H](C(=O)N(C)C)CC(=O)N(C)[C@@H](CC3CC3)C(=O)N[C@@H]([C@@H](C)CC)C(=O)NCC(=O)N(C)[C@H]3C/C=C\CCN(C3=O)[C@@H](Cc3ccc(C(F)(F)F)cc3)C(=O)N(C)CC(=O)N[C@@H](CCc3cc(F)c(C(F)(F)F)c(F)c3)C(=O)N2C1
HRAS /KRAS (HRAS wild-type protein; [5]): B (a compound having 3 or more and less than 10 is denoted as B)
